ChEMBL document CHEMBL1141118, “Synthesis and SAR of 5-amino- and 5-(aminomethyl)benzofuran histamine H3 receptor antagonists with improved potency” (J Med Chem, 2005)

Amino acid sequences for entries named in this document (tags omitted). A change or cut given only in a name is not applied to a line headed by its entry.
UniProt Q9QYN8: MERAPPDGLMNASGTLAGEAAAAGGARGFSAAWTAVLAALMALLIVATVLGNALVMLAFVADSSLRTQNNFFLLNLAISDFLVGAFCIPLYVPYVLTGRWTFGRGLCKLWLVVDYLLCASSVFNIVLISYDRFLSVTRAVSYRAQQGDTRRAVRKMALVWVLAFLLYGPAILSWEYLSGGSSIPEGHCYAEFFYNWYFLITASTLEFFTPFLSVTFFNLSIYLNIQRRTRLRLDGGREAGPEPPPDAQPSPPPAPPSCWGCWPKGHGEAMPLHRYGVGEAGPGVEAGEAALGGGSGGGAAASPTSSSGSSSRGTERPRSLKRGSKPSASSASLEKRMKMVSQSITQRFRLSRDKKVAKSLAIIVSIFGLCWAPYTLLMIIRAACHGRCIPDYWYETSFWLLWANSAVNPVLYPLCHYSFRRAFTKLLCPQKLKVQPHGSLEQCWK

Biological target: Histamine H3 receptor (Rattus norvegicus, UniProt Q9QYN8)
Experiment: In vitro binding affinity for rat histamine H3 receptor using [3H]N-alpha-methylhistamine
Method in brief: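 Radioligand binding used membranes from cells transfected with cloned human or rat H3 receptors.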

C[C@@H]1CCCN1CCc1cc2cc(-c3ccc(C#N)cc3)ccc2o1
Ki: 1.23 nM
